# Laboratory results as given in ChEMBL document CHEMBL1140563, “Redefining the structure-activity relationships of 2,6-methano-3-benzazocines. 5. Opioid receptor binding properties of N-((4'-phenyl)-phenethyl) analogues of 8-CAC” (Bioorg Med Chem Lett, 2007).
# Amino acid sequences for entries named in this document (tags omitted). A change or cut given only in a name is not applied to a line headed by its entry.
# UniProt P41145: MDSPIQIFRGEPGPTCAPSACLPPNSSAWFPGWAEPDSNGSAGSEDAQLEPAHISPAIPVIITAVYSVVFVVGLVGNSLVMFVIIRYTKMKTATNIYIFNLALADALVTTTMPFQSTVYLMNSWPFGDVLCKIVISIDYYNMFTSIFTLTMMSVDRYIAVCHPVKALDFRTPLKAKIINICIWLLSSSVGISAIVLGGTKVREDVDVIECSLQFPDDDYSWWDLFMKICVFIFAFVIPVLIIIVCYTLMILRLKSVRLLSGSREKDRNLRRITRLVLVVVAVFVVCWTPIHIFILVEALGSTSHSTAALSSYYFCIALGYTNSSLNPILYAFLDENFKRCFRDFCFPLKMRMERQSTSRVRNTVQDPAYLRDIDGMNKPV
# Calls of active or inactive are those of the source. The rule behind the calls is not given here.
# Experiments:
# [1] = molecular target: T1, Kappa-type opioid receptor (Homo sapiens, UniProt P41145); assay: Agonist activity at human kappa opioid receptor expressed in CHO cell membrane by [35S]GTP-gamma-S binding assay; format: functional, cell membranes
# [2] = molecular target: T1, Kappa-type opioid receptor; assay: Antagonist activity at human kappa opioid receptor expressed in CHO cell membrane assessed as inhibition of U50,488 induced [35S]GTPgammaS binding; format: functional, cell membranes
compound,measurement,setting,value
C[C@H]1C2Cc3ccc(C(=O)NCCc4ccc(-c5ccccc5)cc4)cc3[C@@]1(C)CCN2CC1CC1,Emax,[1],87%
same,Activity,[2],inactive
